Consider 24 molecules from PubChem BioAssay AID1224863 (Southern Research Institute, 2016).

The chains behind the UniProt entries cited, without tags or fusion partners. A line that says so, or that is headed by a name, gives the form on record, which may keep a tag or linker.
UniProt P13569, with tags, fused parts or gaps F508del: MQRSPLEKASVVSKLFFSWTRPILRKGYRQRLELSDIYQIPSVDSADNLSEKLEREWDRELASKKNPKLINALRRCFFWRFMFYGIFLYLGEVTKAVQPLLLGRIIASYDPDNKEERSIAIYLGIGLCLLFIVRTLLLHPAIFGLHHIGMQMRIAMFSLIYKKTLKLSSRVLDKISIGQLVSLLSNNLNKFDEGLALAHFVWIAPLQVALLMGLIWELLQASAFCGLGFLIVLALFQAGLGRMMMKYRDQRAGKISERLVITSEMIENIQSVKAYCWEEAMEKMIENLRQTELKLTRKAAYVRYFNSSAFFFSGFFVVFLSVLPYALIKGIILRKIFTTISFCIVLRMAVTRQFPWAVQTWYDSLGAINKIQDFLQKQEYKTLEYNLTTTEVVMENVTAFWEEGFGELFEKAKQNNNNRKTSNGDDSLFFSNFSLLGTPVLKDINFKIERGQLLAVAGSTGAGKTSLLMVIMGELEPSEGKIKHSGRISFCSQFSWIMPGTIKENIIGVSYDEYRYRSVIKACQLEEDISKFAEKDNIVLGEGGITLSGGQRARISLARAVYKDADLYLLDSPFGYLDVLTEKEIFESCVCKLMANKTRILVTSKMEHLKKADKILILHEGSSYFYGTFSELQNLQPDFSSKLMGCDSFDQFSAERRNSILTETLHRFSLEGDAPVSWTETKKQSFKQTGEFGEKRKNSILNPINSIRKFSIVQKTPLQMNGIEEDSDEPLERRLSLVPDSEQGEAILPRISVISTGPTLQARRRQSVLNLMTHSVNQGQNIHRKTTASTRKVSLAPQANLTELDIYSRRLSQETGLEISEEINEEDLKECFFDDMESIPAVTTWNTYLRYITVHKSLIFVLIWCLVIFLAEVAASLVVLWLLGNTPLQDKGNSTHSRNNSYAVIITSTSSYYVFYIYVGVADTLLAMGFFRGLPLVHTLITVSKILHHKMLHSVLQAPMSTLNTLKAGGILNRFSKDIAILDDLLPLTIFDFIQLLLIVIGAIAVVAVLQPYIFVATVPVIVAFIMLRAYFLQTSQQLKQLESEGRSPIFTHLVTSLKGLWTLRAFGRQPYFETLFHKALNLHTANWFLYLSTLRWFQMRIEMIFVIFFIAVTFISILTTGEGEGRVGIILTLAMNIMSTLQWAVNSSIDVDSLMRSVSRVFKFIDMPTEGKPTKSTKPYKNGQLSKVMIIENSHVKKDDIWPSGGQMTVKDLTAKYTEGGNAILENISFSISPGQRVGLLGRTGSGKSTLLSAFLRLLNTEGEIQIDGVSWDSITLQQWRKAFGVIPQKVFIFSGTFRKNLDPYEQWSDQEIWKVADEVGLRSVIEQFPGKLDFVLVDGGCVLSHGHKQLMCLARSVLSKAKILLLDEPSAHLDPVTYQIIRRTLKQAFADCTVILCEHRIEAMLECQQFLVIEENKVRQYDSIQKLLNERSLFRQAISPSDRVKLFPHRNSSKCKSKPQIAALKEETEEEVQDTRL

Screen size: about 10,000 compounds; about 15 (0.1%) were called active.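 How the source made its calls: active means highest signal at least 8 times the median of untreated cell-only control wells at some dose; inactive means the rest.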 These entries were drawn from the full list.

Assay [1] can be described thus: total CFTR protein upregulators, primary screen, cell-based, HeLa F508del-CFTR, immunofluorescence, viability (AID 1224863).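 On fold increase: total CFTR protein by anti-CFTR immunofluorescence in fixed cells.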 Particulars: 24 h, stronger effect = higher value; min viability: measured here: HeLa viability, alamarBlue, dose 20, library dosed in µg/mL unless noted; viability: measured here: primary viability 10 ug/mL, library dosed in µg/mL unless noted.
Assay [2] has as its target Cystic fibrosis transmembrane conductance regulator (Homo sapiens) (UniProt P13569). Described as above. The conditions noted are these: 24 h; fold increase: measured here: primary screen 10 ug/mL, library dosed in µg/mL, stronger effect = higher value unless noted; max fold increase: dose 10, library dosed in µg/mL, stronger effect = higher value unless noted; outcome: library dosed in µg/mL unless noted.

Consider `Cc1noc2nc(-c3ccco3)cc(C(=O)OCc3cc(=O)n4cc(Cl)ccc4n3)c12`, for which, in assay [1], the viability came out at 101%. In assay [2], the fold increase stood at 1.11 and the call was inactive.

As for `CC1(c2ccccc2)NC(=O)N(Cc2cc(=O)n3ccccc3n2)C1=O` (configuration not stated), the viability in assay [1] came to 91%. Further, in assay [2], the fold increase came to 1.06 and the result was inactive.

`Cn1ncc2c(NCC3(N4CCCCC4)CCCCC3)ncnc21`: in assay [1], the viability is 96%. In addition, in assay [2], the fold increase was 1.05 and the call was inactive.

For `CC(C(=O)NC1CCCCCC1)N1CCN(C(C)C(=O)NC2CC2)CC1` (configuration not stated), the viability in assay [1] was 95%. Besides, in assay [2], the fold increase stood at 1.06 and the molecule was called inactive.

As to `Fc1ccc(-c2[nH]ncc2CNCc2ccccc2Cn2cncn2)cc1`, in assay [1], the viability came out at 104%. In assay [2], the fold increase is 1.01 and the result was inactive.

In the case of `CC(c1nnc(-c2cccs2)o1)N1CCC(O)CC1` (configuration not stated), the viability in assay [1] turned out to be 99%. Further, in assay [2], the fold increase was determined as 1.04 and the call was inactive.

As to `Cn1cc(S(=O)(=O)N2CCN(Cc3nc(N)nc(N)n3)CC2)cc1C(N)=O`, the viability in assay [1] worked out at 91%. For the same molecule, in assay [2], the fold increase is 0.98 and the result was inactive.

As to `Cn1c(SCc2ccc(-n3cccn3)cc2)nc2ccccc21`, the viability in assay [1] amounted to 92%. Further, in assay [2], the fold increase amounted to 0.97 and the outcome was inactive.

In the case of `Cc1sc2nc(CN3CCCC3)nc(-n3nnc(-c4cccnc4)n3)c2c1C`, in assay [1], the viability was found to be 84%. In assay [2], the fold increase was 1.04 and the result was inactive.

Consider `Cc1cc(C)cc(-c2nnc(SC3CCCCC3=O)o2)c1` (configuration not stated), for which, in assay [1], the viability is 112%. Also, in assay [2], the fold increase is 1.07 and the call was inactive.

Take `CC1Oc2ccc(NC(=O)C3=NN(C)C(=O)CC3)cc2NC1=O` (configuration not stated): the viability in assay [1] amounted to 100%. Moreover, in assay [2], the fold increase stood at 0.99 and the molecule was classed as inactive.

Regarding `Cc1ccc(C)c(CS(=O)(=O)Cc2ccccc2SC(F)F)c1`, the viability in assay [1] amounted to 86%. Also, in assay [2], the fold increase is 1.03 and the molecule was classed as inactive.

Turning to `Cc1oc(C)c(C(=O)Nc2ncn[nH]2)c1C`, the viability in assay [1] is 86%. In assay [2], the fold increase amounted to 0.86 and the call was inactive.

Take `CC1CCC(NC(=O)c2ccc([N+](=O)[O-])s2)CC1` (configuration not stated): in assay [1], the viability was 77%. In assay [2], the fold increase is 0.76 and the molecule was classed as inactive.

As for `Cc1ccc(-n2nnnc2SCc2cn3cccc(C)c3n2)cc1C`, the viability in assay [1] worked out at 79%. In addition, in assay [2], the fold increase stood at 0.98 and the molecule was classed as inactive.

As to `C=CCOc1ccc(/C(O)=C2/C(=O)C(=O)N(CCCN(C)C)C2c2cccc(Br)c2)cc1` (configuration not stated), the viability in assay [1] was 91%. In addition, in assay [2], the fold increase amounted to 1.07 and the call was inactive.

`O=S(=O)(c1ccc2ccccc2c1)N1CCN(S(=O)(=O)c2ccccc2Cl)CC1`: in assay [1], the viability worked out at 94%. In assay [2], the fold increase worked out at 1.06 and the result was inactive.

As for `Clc1ccc(-c2nc(Sc3ccccc3Cl)c3c4c(sc3n2)CCC4)cc1`, the viability in assay [1] was 91%. Further, in assay [2], the fold increase is 1.15 and the molecule was called inactive.

Consider `Cc1c(C2Nc3ccccc3C(=O)N2c2ccc3c(c2)OCO3)cc(C#N)n1C` (configuration not stated), for which, in assay [1], the viability turned out to be 100%. In assay [2], the fold increase turned out to be 1.05 and the molecule was classed as inactive.

As for `O=C(O)CN1C(=O)COc2cc(Br)ccc21`, the viability in assay [1] worked out at 101%. Also, in assay [2], the fold increase came out at 1.01 and the call was inactive.

Regarding `NC1CC(=O)N(c2ccc(Oc3ccccc3)cc2)C1` (configuration not stated), the viability in assay [1] is 60%. Besides, in assay [2], the fold increase amounted to 0.71 and the molecule was classed as inactive.

With `Cc1cn2nc(NC3CCCC3)sc2n1`, in assay [1], the viability is 96%. For the same molecule, in assay [2], the fold increase was 0.88 and the result was inactive.

In the case of `COc1cc(OC)c(CNC(C)c2ccc(F)cc2F)c(OC)c1` (configuration not stated), the viability in assay [1] turned out to be 103%. In addition, in assay [2], the fold increase is 1.05 and the molecule was classed as inactive.

For the molecule `CSc1ccc(OCC(=O)c2[nH]c(C)c(C(C)=O)c2C)cc1`, the viability in assay [1] stood at 77%. Also, in assay [2], the fold increase was found to be 0.86 and the result was inactive.
